The results in this text go back to patent US20210196678A1, “SELECTIVE ANDROGEN RECEPTOR DEGRADER (SARD) LIGANDS AND METHODS OF USE THEREOF” (University of Tennessee Research Foundation, priority 2018, published 2021).

In series [1] the test system is AR splice variants.
Series [2] deals with full length AR. The series can be described thus: LNCaP or AD1 degradation (full length AR, Western blot). In kind it is cell-based. Conditions: for SARD Activity Full Length % inhibition at 1 μM: first of two values in the cell; for SARD Activity Full Length % inhibition at 10 μM: second of two values in the cell.
For series [3], the system named is Intact Sprague Dawley rats. The series can be described thus: Hershberger assay, seminal vesicles and prostate weights. Conditions: for (Prostate) % diff / (S.V.) % diff: 20 mg/kg Hershberger experiment; for Seminal vesicles weight reduction / in vivo AR antagonism, in words: compared to 1002 or castration.
Series [4] can be described thus: SARD compound serum concentrations in Hershberger rats (LC-MS/MS).
The mark [5] stands for this setting: 20 mg/kg by mouth daily for 13 days.

Each structure is given as a SMILES string. Entries after “also recorded” stand apart in the source; their conditions may differ.

As for `CN(C[C@](C)(O)C(=O)Nc1ccc(C#N)c(C(F)(F)F)c1)c1ccc(C#N)c(-c2ccccc2)c1` [Compound 17], in series [1], the “SARD Activity S.V. % inhibition at 10 μM” value worked out at 80%. Also, the “SARD Activity Full Length % inhibition at 1, 10 μM” value in series [2] (single value given, concentration not told apart, with 0.1 nM R1881, 24 h) is reported as 80%.
Turning to `C[C@](O)(Cn1nc(F)c2cc(F)ccc21)C(=O)Nc1ccc(C#N)c(C(F)(F)F)c1` [Compound 98, (S)-N-(4-Cyano-3-(trifluoromethyl)phenyl)-3-(3,5-difluoro-1H-indazol-1-yl)-2-hydroxy-2-methylpropanamide], in series [2], the “SARD Activity Full Length % inhibition at 1 μM” value is listed as 37% and the “SARD Activity Full Length % inhibition at 10 μM” value came to 81%.
On to `C[C@](O)(Cn1cc(-c2ccc(F)cc2)nn1)C(=O)Nc1ccc(C#N)c(C(F)(F)F)c1` [Compound 1045], for which, in series [3] (setting [5]), the “Decrease in Prostate Weight in Rats, % difference from 1002” value was 30%; the “Decrease in Prostate Weight in Rats, % inhibition” value was determined as 26%; the “Decrease in Seminal Vesicles Weights in Rats, % difference from 1002” value is reported as 12%; the “Decrease in Seminal Vesicles Weights in Rats, % inhibition” value was determined as 46%. For the same compound, in series [3] (rats), the “(Prostate) % diff” value is “.35%” and the “(S.V.) % diff” value is listed as “.45%”. Also, the “Prostate weights, in words” value in series [3] (rats, 20 mg/kg, compared to 1002) was “performed better than 1002”. Besides, the “Seminal vesicles weight reduction / in vivo AR antagonism, in words” value in series [3] (rats, 20 mg/kg) is on record as “performed equivocally; also recorded: equivocal”. Also, the “Serum Conc.” value in series [4] (Table 2, rats, 20 mg/kg daily for 13 days) came to 1.209 µM. The “Serum Conc.” value in series [4] (Table 4, rats, 20 mg/kg) worked out at 1.209 µM. In series [2] (3 μm), the “Degradation (% at 3 μm)” value came to 47%.
For the compound `C[C@](O)(Cn1cc(Cl)cn1)C(=O)Nc1ccc(C#N)c(C(F)(F)F)c1` [Compound 1049], in series [3] (rats), the “(Prostate) % diff” value is recorded as “.20%” and the “(S.V.) % diff” value is “.65%”. The “Seminal vesicles weight reduction / in vivo AR antagonism, in words” value in series [3] (rats, 20 mg/kg) is reported as “marginally improved”. Besides, the “Serum Conc.” value in series [4] (Table 4, rats, 20 mg/kg) stood at 0.125 µM.
Regarding `C[C@](O)(Cn1ncc(Cl)c1Br)C(=O)Nc1ccc(C#N)c(C(F)(F)F)c1` [Compound 1067], the “SARD Activity S.V. % inhibition at 10 μM” value in series [1] is recorded as 73%. Moreover, in series [2], the “SARD Activity Full Length % inhibition at 1 μM” value amounted to 62% and the “SARD Activity Full Length % inhibition at 10 μM” value was 88%.
